Paper PMC9425435, “Antiviral Profiling of C-18- or C-19-Functionalized Semisynthetic Abietane Diterpenoids” (Journal of Natural Products, 2022)

Columns and labels:
[1] = tested on: DENV-2 (Dengue virus type 2); test: Plaque reduction assay (PFU), DENV-2 in BHK21; assay type: cell-based; conditions: DENV-2, BHK21, PFU/well 150 ± 25
Vero-E6 cells = test: Cytotoxicity CC100 in Vero-E6 cells (72 h)

NC(=O)c1ncn([C@@H]2O[C@H](CO)[C@@H](O)[C@H]2O)n1 [R, ribavirin, reference compound]
% inhibition (PFU) [1]: 75 ± 23% | CC100 (100% cytotoxic concentration) (Vero-E6 cells): >160 µg/mL
